According to PubChem BioAssay AID845 (Columbia University Molecular Screening Center, 2007):
The entries are a selection whose mix differs from that of the whole data set. Activity calls are given as the source filed them.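 The calls were made as follows: active = cell count reduction more than 3 SD above the screen-wide mean (cut at about 70% in these data); inactive = the rest.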

Assay: HUVEC cell count loss after compound exposure – imaging, Hoechst nuclear count, IL-1B stimulus, cytotoxicity control for IL-1B NFkB translocation project, primary screen (AID 845);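 also: normalized per plate to untreated control cells as the no-loss baseline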
Conditions: IL-1B stimulated, at 2 µM, stronger effect = higher value
In the case of `N#CC1(Nc2ccccc2)CCN(CCc2ccccc2)CC1`, the cell count reduction is reported as inactive: -27.6%. With `O=C(NCC1(N2CCOCC2)CCCCC1)c1cc(=O)[nH]c2ccccc12` the cell count reduction was inactive: -5.7%. For `CN1CCC(Nc2cccc(F)c2)CC1`, the cell count reduction was inactive: 29.4%. For `O=C(OC1CN2CCC1CC2)C1c2ccccc2Oc2ccccc21` (stereo not given), the cell count reduction was inactive: -30.1%. In the case of `O=C(NCC1(N2CCOCC2)CCCCC1)c1cc2ccccc2o1`, the cell count reduction is reported as inactive: -1.9%. In the case of `COc1ccc(NC2CCN(CCc3ccccc3)CC2)c(OC)c1`, the cell count reduction is reported as inactive: -8.9%. For `CCOc1ncccc1C(=O)NCC1(N2CCOCC2)CCCCC1`, the cell count reduction was inactive: -28%. For `CCC(CO)(C(=O)OC1CN2CCC1CC2)c1ccccc1` (stereo not given), the cell count reduction was inactive: -33.3%. For `N/C(=N\O)c1c(N)no[n+]1[O-]`, the cell count reduction was inactive: -9.6%. In the case of `c1ccc(CN2CCC(Nc3ccccc3)CC2)cc1`, the cell count reduction is reported as inactive: 15.7%.
